SMILES strings stand for the structures.

Amino acid sequences for entries named in this document (tags omitted).
UniProt Q96SW2, whole entry: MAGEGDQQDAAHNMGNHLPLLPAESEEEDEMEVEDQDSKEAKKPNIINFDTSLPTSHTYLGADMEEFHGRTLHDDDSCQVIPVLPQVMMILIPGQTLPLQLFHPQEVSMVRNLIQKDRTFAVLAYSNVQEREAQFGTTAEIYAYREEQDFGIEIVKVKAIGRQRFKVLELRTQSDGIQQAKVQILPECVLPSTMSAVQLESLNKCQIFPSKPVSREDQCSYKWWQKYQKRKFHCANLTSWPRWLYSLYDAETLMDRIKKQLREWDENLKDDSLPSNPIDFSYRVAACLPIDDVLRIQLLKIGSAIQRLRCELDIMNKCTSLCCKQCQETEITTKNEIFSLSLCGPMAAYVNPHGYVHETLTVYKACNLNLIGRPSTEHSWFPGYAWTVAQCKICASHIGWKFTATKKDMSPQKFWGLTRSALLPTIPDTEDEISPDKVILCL
UniProt Q9UKT9, whole entry: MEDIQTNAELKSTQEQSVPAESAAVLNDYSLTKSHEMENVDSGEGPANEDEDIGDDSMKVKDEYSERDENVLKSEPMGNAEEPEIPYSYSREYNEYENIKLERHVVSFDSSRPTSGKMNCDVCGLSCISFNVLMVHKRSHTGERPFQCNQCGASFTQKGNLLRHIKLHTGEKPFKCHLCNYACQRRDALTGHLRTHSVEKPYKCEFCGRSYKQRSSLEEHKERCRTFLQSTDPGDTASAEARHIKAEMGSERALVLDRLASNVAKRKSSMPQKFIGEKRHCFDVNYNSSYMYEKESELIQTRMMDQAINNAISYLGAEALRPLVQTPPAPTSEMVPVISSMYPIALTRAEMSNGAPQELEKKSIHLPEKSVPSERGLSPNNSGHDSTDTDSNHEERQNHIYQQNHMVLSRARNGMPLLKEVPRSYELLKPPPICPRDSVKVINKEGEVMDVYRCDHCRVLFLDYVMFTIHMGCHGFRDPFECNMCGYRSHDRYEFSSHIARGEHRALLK
UniProt P15170, whole entry: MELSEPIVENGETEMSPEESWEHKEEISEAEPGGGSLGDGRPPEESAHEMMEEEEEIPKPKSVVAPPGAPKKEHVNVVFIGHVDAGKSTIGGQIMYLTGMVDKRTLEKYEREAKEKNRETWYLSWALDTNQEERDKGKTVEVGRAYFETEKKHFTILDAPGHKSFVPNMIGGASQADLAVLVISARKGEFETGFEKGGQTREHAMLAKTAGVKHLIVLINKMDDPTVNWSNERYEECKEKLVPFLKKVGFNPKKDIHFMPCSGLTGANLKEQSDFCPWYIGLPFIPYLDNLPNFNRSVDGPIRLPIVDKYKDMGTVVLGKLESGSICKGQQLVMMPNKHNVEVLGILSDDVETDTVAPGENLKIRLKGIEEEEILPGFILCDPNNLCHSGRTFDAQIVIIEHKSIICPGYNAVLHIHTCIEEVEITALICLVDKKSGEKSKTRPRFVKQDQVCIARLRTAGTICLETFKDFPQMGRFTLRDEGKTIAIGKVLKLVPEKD
UniProt P48729, whole entry: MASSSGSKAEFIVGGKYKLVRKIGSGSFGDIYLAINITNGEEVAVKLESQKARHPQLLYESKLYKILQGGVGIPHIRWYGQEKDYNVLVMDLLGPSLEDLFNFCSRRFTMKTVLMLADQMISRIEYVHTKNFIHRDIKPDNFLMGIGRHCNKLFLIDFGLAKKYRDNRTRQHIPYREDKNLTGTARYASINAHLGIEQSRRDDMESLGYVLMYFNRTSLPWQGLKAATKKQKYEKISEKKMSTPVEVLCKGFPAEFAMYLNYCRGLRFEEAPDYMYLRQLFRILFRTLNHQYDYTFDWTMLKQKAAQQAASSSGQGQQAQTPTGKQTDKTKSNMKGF
UniProt P30291, whole entry: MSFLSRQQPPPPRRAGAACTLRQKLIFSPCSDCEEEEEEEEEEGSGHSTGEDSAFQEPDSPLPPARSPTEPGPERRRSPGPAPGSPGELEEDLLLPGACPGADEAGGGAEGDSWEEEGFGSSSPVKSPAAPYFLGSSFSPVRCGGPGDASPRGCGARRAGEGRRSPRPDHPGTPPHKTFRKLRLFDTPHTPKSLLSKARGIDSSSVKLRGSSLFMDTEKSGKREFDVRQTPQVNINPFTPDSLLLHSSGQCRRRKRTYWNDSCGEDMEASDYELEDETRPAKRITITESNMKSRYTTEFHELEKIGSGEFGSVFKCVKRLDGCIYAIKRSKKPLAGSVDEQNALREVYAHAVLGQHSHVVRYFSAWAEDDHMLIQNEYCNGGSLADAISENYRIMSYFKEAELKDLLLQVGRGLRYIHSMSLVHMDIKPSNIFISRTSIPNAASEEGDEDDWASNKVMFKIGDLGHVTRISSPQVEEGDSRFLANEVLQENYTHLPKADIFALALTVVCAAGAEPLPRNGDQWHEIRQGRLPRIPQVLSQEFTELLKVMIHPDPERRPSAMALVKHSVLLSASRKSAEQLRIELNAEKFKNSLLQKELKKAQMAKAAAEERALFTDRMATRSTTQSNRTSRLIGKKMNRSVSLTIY
UniProt Q13422, whole entry: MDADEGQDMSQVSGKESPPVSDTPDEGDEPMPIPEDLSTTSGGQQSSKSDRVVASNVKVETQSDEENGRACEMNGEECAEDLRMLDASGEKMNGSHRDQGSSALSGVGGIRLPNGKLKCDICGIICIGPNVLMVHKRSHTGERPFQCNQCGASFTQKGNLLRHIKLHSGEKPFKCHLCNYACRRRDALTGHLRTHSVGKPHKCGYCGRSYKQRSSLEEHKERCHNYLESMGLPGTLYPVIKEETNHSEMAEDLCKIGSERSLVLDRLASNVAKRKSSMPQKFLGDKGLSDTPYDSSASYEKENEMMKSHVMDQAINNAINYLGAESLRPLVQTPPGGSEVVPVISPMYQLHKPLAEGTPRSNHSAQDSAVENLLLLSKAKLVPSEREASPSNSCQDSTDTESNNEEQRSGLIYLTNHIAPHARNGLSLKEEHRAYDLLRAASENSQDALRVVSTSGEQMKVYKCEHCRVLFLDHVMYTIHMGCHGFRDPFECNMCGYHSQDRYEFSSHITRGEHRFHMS
UniProt Q9UKS7, whole entry: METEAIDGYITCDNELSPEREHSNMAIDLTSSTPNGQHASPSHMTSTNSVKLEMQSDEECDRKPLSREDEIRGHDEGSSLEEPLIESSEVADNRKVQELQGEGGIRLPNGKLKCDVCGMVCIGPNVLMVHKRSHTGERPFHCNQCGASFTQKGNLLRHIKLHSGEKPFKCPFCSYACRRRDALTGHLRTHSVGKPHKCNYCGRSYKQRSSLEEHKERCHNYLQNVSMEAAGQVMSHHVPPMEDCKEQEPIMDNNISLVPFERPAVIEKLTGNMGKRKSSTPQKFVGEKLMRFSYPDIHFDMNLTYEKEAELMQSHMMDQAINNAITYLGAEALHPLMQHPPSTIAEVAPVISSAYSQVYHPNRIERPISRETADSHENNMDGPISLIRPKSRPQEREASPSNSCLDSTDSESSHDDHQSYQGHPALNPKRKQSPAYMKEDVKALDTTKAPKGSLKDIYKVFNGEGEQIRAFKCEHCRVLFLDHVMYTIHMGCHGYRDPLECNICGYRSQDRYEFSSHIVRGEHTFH
UniProt Q16531, whole entry partner: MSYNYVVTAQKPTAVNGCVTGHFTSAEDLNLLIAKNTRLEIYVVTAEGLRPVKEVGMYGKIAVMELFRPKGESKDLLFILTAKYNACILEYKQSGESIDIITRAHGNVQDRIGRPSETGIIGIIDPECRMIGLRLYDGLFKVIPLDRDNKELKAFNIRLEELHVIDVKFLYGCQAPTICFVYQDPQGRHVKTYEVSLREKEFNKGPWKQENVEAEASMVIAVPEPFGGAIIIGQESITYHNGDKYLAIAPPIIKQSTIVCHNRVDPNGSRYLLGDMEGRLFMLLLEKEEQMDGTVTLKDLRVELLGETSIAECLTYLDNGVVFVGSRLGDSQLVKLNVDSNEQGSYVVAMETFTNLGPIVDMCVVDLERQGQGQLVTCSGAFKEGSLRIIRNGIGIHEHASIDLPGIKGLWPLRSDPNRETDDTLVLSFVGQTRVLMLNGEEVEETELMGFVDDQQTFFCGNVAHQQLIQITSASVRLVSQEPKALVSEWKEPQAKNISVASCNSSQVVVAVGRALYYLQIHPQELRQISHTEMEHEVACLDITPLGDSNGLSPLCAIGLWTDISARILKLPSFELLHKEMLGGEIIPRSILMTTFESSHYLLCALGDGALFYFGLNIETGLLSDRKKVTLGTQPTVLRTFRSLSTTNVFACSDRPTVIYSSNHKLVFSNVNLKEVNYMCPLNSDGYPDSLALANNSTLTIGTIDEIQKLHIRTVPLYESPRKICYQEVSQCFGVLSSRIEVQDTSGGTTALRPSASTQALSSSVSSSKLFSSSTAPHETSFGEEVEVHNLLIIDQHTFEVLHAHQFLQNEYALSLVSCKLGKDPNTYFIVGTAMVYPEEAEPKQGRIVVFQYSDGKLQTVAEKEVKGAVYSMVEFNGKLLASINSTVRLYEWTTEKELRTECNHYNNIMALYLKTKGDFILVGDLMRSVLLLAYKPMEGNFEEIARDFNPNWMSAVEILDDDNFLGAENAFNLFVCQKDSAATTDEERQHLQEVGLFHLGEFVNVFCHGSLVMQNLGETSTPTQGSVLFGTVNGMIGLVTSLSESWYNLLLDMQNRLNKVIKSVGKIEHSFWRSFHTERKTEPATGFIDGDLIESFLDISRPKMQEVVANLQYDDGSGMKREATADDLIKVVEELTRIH

The subject of assay [1] is Human multiple myeloma cell (MM.1S). The experiment in a line: Tumor cell proliferation inhibition (cell viability assay). The following applies: MM.1S cells, 96 hours.
Assay [2] relates to IL-1α. The experiment in a line: Inflammatory cytokine release from PBMCs induced by PHA (flow cytometry CBA). The conditions noted are these: 0.1 µM, PHA 1 µg/mL, 24 h. (In general: In flow cytometry, cells or beads pass a laser one at a time.)
For assay [3], the system named is IL-1β. The description is as above. The following applies: 0.1 µM, PHA 1 µg/mL, 24 h.
Assay [4] has as its system TNF-α. The assay is described as above. The conditions noted are these: PHA 1 µg/mL, 24 h.
Assay [5] has as its target CRBN (Homo sapiens, UniProt Q96SW2). Briefly: CRBN binding affinity by HTRF (CEREBLON BINDING kit). The following applies: for IC50: read-out: HTRF IC50, human Cereblon WT GST-tagged protein, 3 hours at room temperature.
Assay [6] deals with IL-2. The experiment in a line: Inflammatory cytokine release from PBMCs induced by PHA (flow cytometry CBA). The conditions noted are these: PBMCs, PHA 1 µg/mL, 24 h.
The test system of assay [7] is Vcap. Briefly: Tumor cell proliferation inhibition (cell viability assay). The following applies: read-out: Inhibitory activity against tumor cells proliferation (IC50, nM) Vcap, 96 hours.
Assay [8] concerns CCRF-CEM. Described as above. The following applies: read-out: Inhibitory activity against tumor cells proliferation (IC50, nM) CCRF-CEM, 96 hours.
The subject of assay [9] is Kasumi-1. The description is as above. The following applies: read-out: Inhibitory activity against tumor cells proliferation (IC50, nM) Kasumi-1; Kasumi-1 cells; 72 hours.
Assay [10] deals with HEP3B2.1-7. Described as above. The following applies: read-out: Inhibitory activity against tumor cells proliferation (IC50, nM) HEP3B2.1-7; HEP3B2.1-7 cells; 96 hours.
Assay [11] has as its system Jurkat. The assay is described as above. The conditions noted are these: read-out: Inhibitory activity against tumor cells proliferation (IC50, nM) Jurkat, 96 hours.
Assay [12] has as its system MM.1R. Described as above. The following applies: read-out: Inhibitory activity against tumor cells proliferation (IC50, nM) MM.1R; MM.1R cells; 96 hours.
The target of assay [13] is IKZF3 (Homo sapiens, UniProt Q96SW2+Q9UKT9). Briefly: Western blot assay of substrate protein degradation in hPBMCs. The following applies: 24 hours treatment, compounds at 50 nM and 500 nM (concentration behind the class not stated). In general terms: A western blot detects proteins with antibodies after separation by electrophoresis.
Assay [14] concerns the target GSPT1 (Homo sapiens, UniProt P15170+Q96SW2). The assay is described as above. The conditions noted are these: 24 hours treatment, compounds at 50 nM and 500 nM (concentration behind the class not stated).
Assay [15] deals with CK1α (Homo sapiens, UniProt P48729+Q96SW2). The assay is described as above. The conditions noted are these: 24 hours treatment, compounds at 50 nM and 500 nM (concentration behind the class not stated).
Assay [16] has as its target WEE1 (Homo sapiens, UniProt P30291+Q96SW2). The assay is described as above. The following applies: 24 hours treatment, compounds at 50 nM and 500 nM (concentration behind the class not stated).
Assay [17] addresses IKZF1 (Homo sapiens, UniProt Q13422+Q96SW2). Described as above. The following applies: 24 hours treatment, compounds at 50 nM and 500 nM (concentration behind the class not stated).
Assay [18] concerns the target IKZF2 (Homo sapiens, UniProt Q96SW2+Q9UKS7). Described as above. The following applies: 24 hours treatment, compounds at 50 nM and 500 nM (concentration behind the class not stated).

Consider `CC1(C)CCC(C(=O)N2CCN(C3CCN(Cc4ccc5c(c4)CN(C4CCC(=O)NC4=O)C5=S)CC3(F)F)CC2)=C(c2ccc(Cl)cc2)C1` (stereo not shown), for which the “Inhibition Rate at 10 nM (%)” value in assay [1] (10 nM) is recorded as 1b5 (32% ≤ 1b5 < 42%). The “Inhibition Rate at 500 nM (%)” value in assay [1] (500 nM) is reported as 1b9 (70% ≤ 1b9 < 80%). Also, the “Inhibition Rate (%) IL-1α” value in assay [2] is listed as “IV11 (60% < IV11 ≤ 70%)”. The “Inhibition Rate (%) IL-1β” value in assay [3] is “IV10 (50% < IV 10 ≤ 60%)”. The “Inhibition Rate (%) TNF-α” value is reported as “IV5 (0% < IV5 ≤ 10%)” in [4] (0.1 µM) and “IV9 (40% < IV9 ≤ 50%)” in [4] (1 µM). For the same molecule, in [5] (CRBN binding, HTRF, compound at 0.5 µM), the “Inhibition Rate at 0.5 µM (%)” value was “a5 (53% < a5 ≤ 60%)”. Also, the “Inhibition Rate at 2 µM (%)” value in [5] (CRBN binding, HTRF, compound at 2 µM) is “a8 (80% < a8 ≤100%)”.
As for `O=C1CCC(N2Cc3cc(CN4CCC(N5CCN(C(c6ccccc6)c6ccccc6)CC5)C(F)(F)C4)ccc3C2=S)C(=O)N1` (stereo not shown), in assay [2], the “Inhibition Rate (%) IL-1α” value is on record as “IV8 (30% < IV8 ≤ 40%)”. For the same molecule, in assay [3], the “Inhibition Rate (%) IL-1β” value was “IV9 (40% < IV9 ≤ 50%)”. Moreover, the “Inhibition Rate (%) TNF-α” value in assay [4] (0.1 µM) is “IV4 (-50% ≤ IV4 < 0%)”. The “Inhibition Rate (%) IL-2” value is recorded as “IV4 (-50% ≤ IV4 < 0%)” in assay [6] (0.1 µM) and “IV9 (40% < IV9 ≤ 50%)” in [6] (1 µM). In addition, the IC50 in assay [5] was 0.1 to 0.5 µM.
Take `O=C1CCC(N2Cc3c(ccc(CN4CCC(N5CCN(C(c6ccccc6)c6ccccc6)CC5)C(F)(F)C4)c3F)C2=O)C(=O)N1` (stereo not shown): the IC50 in [7] lay within 100 to 200 nM; in assay [8], 20 to 50 nM; in assay [1] (read-out: Inhibitory activity against tumor cells proliferation (IC50, nM) MM.1S) it was 20 to 50 nM; in assay [9], 200 to 500 nM; in assay [10] it was 20 to 50 nM; in assay [11], 50 to 100 nM. The IC50 in assay [12] is 20 to 50 nM; in assay [5], 1 to 1.5 µM. For the same molecule, the “substrate protein remaining % (IKZF3)” value in assay [13] was “A (0% ≤ substrate protein remaining % ≤ 80%)”. Moreover, the “substrate protein remaining % (GSPT1)” value in [14] is “A (0% ≤ substrate protein remaining % ≤ 80%)”. Further, in assay [15], the “substrate protein remaining % (CK1a)” value is “A (0% ≤ substrate protein remaining % ≤ 80%)”. In addition, in assay [16], the “substrate protein remaining % (WEE1)” value was “A (0% ≤ substrate protein remaining % ≤ 80%)”. The “substrate protein remaining % (IKZF 1)” value in assay [17] is given as “A (0% ≤ substrate protein remaining % ≤ 80%)”. Also, the “substrate protein remaining % (IKZF2)” value in assay [18] was “A (0% ≤ substrate protein remaining % ≤ 80%)”.

The values above are taken from patent publication EP4834897A1, “COMPOUNDS WITH TWO AZAHETEROCYCLES SUBSTITUTED ISOINDOLINONE SKELETON AND USES THEREOF” (dated 2026).
